Measured values published in doi:10.1101/2023.06.06.543836.

Chains of the proteins cited; added tags and fusions are not shown. Lines headed by an entry give the natural chain unless they say otherwise; changes in a name come on top. Residues count along the entry.
UniProt P63158: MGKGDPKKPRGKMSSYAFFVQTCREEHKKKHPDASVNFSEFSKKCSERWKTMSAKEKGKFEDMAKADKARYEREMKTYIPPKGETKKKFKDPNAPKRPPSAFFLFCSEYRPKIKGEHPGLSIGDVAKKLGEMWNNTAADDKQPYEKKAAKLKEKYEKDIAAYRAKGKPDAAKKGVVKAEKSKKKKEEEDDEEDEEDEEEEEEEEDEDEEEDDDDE
UniProt P48061, 22-89: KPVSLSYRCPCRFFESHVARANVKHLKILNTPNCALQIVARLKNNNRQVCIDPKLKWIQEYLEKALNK

Target: Ac-pep with a tyrosine added at the N-terminus (ITC form) (UniProt P63158)
Assay: ITC

- Kd1 (apparent, two-site model): 0.6 µM
- Kd2 (apparent, two-site model): 0.1 µM
Substance: CXCL12 (chemokine (C-X-C motif) ligand 12) (from UniProt P48061 22-89) (natural protein)
